Experimental data published in PMC5601738, “Facile total synthesis of lysicamine and the anticancer activities of the Ru^II, Rh^III, Mn^II and Zn^II complexes of lysicamine” (Oncotarget, 2017).

Legend:
[1] = system: apoptosis associated proteins in HepG2 cells; experiment: Western blot of apoptosis-related proteins; details: HepG2, 24 h, various concentrations
[2] = system: cell cycle regulatory proteins in HepG2 cells; experiment: Western blot of cell cycle regulatory proteins; details: HepG2, 24 h, increasing concentrations

Substance: [Rh(LY-OH)Cl3CH3OH] [Complex 2]
- expression of Bax, Apaf-1 and cytochrome c [1]: increased
- expression of C-myc, Bcl-xl and Bcl-2 [1]: decreased
- expression of Cdk2, p-Cdc25A, p53, p21 and p27 [2]: increased
